Reference: US20080096872A1, “Composition for Treatment of Pain Specification” (priority 2004, published 2008)

Assay: Serum levels of methadone and EDDP enantiomers by stereoselective LC/MS, with and without NAC
Assay type: in vivo, human
Conditions: each patient, when NAC is used versus not; differences may not be statistically significant

## CC(=O)N[C@@H](CS)C(=O)O [NAC, N-acetyl-cysteine]
  ratio of metabolite/parent isomer (rmtd/reddp; smtd/seddp): lower in each patient when NAC is used
